Values quoted from earlier work, collected in patent US11191803B2, “Laminin receptor peptides for therapy” (priority 2017, dated 2021).

Tested on: ALS/MND patients
Conditions: cited from earlier work

Q: With Nc1nc2ccc(OC(F)(F)F)cc2s1 [Riluzole] as the compound, how does the Survival advantage read?
A: 2-3 months
